Experimental data: patent US8114961B2

Target: murine laminin-1 (NEBiolabs) (murine) (UniProt P19137)
Assay: ELISA: plates precoated with murine laminin-1, increasing LamR concentrations, Penta-His HRP detection, one-site binding hyperbola

| Kd [nM] | Substance |
| --- | --- |
| 1700 | LamR-220 (residues 1-220 of human 37 kDa LamR protein) (receptor) |
| 700 | LamR-295 (full-length human laminin receptor having residues 1-295) (from UniProt P08865) |
